The source of these data is US20260382643A1, “MITOCHONDRIA-TARGETED N-ACETYLCYSTEINE AND ANALOGS” (published 2026).

Read-outs that look alike come from different tables or passages of the source.

For series [1] the following is noted: relatively higher concentrations used to inhibit cancer cells; cited from earlier work.
The next series has as its system MCT-1 transporter. As to conditions: cited from earlier work.
For series [2], the system named is B-cell lymphoma xenograft. Conditions: with another OXPHOS inhibitor; cited from earlier work.
The subject of series [3] is MiaPaCa-2 cells, basal mitochondrial respiration (OCR). Kind of series: Intact cell mitochondrial oxygen consumption (Seahorse XF-96).
Series [4] relates to mitochondrial respiratory complex III. As to conditions: several cancer cells including glioblastoma; cited from earlier work.
The test system of the next series is lung cancer. As to conditions: mice; cited from earlier work.
For series [5], the system named is human pancreatic cancer (MiaPaCa-2) cells. The experiment in a line: Cell death (SYTOX Green assay).
The subject of series [6] is melanoma cancer (UACC-62) cells. The experiment in a line: Cell proliferation (IncuCyte), melanoma. As to conditions: for sensitivity of melanoma cells: compared with other cancer cells.
For series [7] the following is noted: cited from earlier work.
Series [8] concerns monocarboxylate transporter 4 (MCT-4). Conditions: cited from earlier work.
The target in the next series is mitochondrial complex I (UniProt O00217+O75251+O75306+O75489+P03886+P03891+P03897+P03901+P03905+P03915+P03923+P19404+P28331+P49821). The experiment in a line: Mitochondrial complex I-dependent oxygen consumption in permeabilized cells (Seahorse XF-96).
The subject of a further series is melanoma. As to conditions: cited from earlier work.
The conditions of series [9]: vs NAC; cited from earlier work.
Series [10] deals with paracetamol toxicity and oxidative stress-induced diseases. As to conditions: cited from earlier work.
The next series relates to glioma. Conditions: neural stem cell-based antiglioma oncolytic virotherapy; cited from earlier work.
Series [11] relates to human pancreatic cancer (MiaPaCa-2) cells. The experiment in a line: Cell proliferation (IncuCyte Live-Cell Analysis), MiaPaCa-2.
In another series the test system is tumor microenvironment. As to conditions: cited from earlier work.
The test system of series [12] is human pancreatic cancer (MiaPaCa-2) cells. The experiment in a line: Combination effect on cell proliferation (combination index-fraction affected). As to conditions: Mito10-NAC + NAC.
For series [13] the test system is unchanged. Kind of series: Intracellular ATP level (luciferase-based assay). Conditions: at concentrations inhibiting proliferation (printed 10-20 M), 24 h.
Setting [14] is: tumor cell and mice xenograft studies.
[15] abbreviates: read-out: IC50, cell proliferation, at time when control cells reached ~90% confluence, cell line from FIGS. 4A-4B.

Turning to `Cc1[nH]nc(C(F)(F)F)c1Cc1sc2c(c1C(=O)N1C[C@](C)(O)CO1)c(=O)n(C)c(=O)n2C(C)C`, the side effects result in series [1] is listed as “deleterious side effects”. Also, in the series with MCT-1 transporter, the “intracellular acidosis and lactate” value is “enhance intracellular acidosis through increased intracellular lactate and decreased extracellular lactate”. Further, the “combination effect with an OXPHOS inhibitor” value in [2] is recorded as “synergistically inhibited the proliferation”.
Regarding `CC(=O)N[C@@H](CS)C(=O)O`, the IC50 in series [3] (read-out: IC50, basal OCR, 24 h treatment) is above 100000 µM. Also, the “effect on mitochondria and respiratory complex III” value in [4] is “transient mitochondrial oxidation and inhibition of the mitochondrial respiratory complex III”. Besides, the “effect on lung cancer metastasis” value in the series on lung cancer is “enhanced metastasis of lung cancer in mice”. In addition, the cell death result is on record as “considerable cell death” in [5] (24 h treatment) and “significant cell death” in [5] (NAC >50 mM). Besides, the cell toxicity entry in [5] (at concentrations of 100 mM) is on record as “direct cell toxicity”. The “shape of dose response in melanoma cells” value in [6] (FIGS. 8A-8B) is recorded as “dose-dependent biphasic effect”. Besides, the “sensitivity of melanoma cells” value in [6] is reported as “more resistant”. Besides, the distribution result in [7] (hyperpolarized 13C-MRI) is “global distribution of NAC, including to the brain”. Further, in series [7] (setting [14]), the “[13C] GSH levels” value was “no detectable levels”. Moreover, in series [7] (setting [14]), the metabolites formed entry was “forms a [13C] NAC-GSH dimer as well as other homodimers”. In addition, in series [8] (biomarker of breast cancer), the MCT-4 stromal expression entry is “decreased MCT-4 stromal expression”. Moreover, the MCT-4 expression result in series [8] (cancer cell lines) is listed as “inhibit monocarboxylate transporter 4 (MCT-4) expression”. Further, the “inhibition of complex I-induced oxygen consumption” value against mitochondrial complex I (up to 100 mM, direct injection, permeabilized cells) is “about 30%”. Also, the “efficacy of adoptive T cell immunotherapy” value in the series with melanoma (melanoma) was “improve the efficacy of adoptive T cell immunotherapy to treat melanoma”. Moreover, the “effectiveness of T cells treated with NAC vs cultured without NAC” value with melanoma (preclinical melanoma model) is reported as 33 fold.
For the compound `CC(=O)N[C@@H](CS)C(N)=O`, the lipophilicity and permeability result in [9] was “more lipophilic, membrane-permeable and blood brain barrier permeant”. Further, the “potency in reversing paracetamol toxicity and oxidative stress-induced diseases vs NAC” value in series [10] is “more potent than NAC”. Besides, in the series on glioma, the “effect on oncolytic virotherapy” value is on record as “enhance the therapeutic effect of neural stem cell-based antiglioma oncolytic virotherapy”. Also, the IC50 in series [11] (read-out: IC50, cell proliferation (unit printed M), MiaPaCa-2, at ~90% control confluence) worked out at 4300 µM.
As for `CC(=O)N[C@@H](CS)C(=O)OCCOCCOCCOCC[P+](c1ccccc1)(c1ccccc1)c1ccccc1`, the IC50 in series [11] (setting [15]) is 36.7 µM.
Take `O=C1C(OCCCCCCCCCC[P+](c2ccccc2)(c2ccccc2)c2ccccc2)=C([C@H]2CC[C@H](c3ccc(Cl)cc3)CC2)C(=O)c2ccccc21`: in the series with tumor microenvironment (in vivo, listed as Mito10-ATO), the “immunomodulatory effect in tumor” value is given as “reverse immunosuppression by regulatory T cells by stimulating the function of effector T cells”. Besides, in the series with tumor microenvironment (with PD-1 blockade), the “potency comparison of the efficacy of PD-1 blockade immunotherapy in combination” value was “improved the efficacy of PD-1 blockade immunotherapy”.
As for `CSC[C@H](NC(C)=O)C(=O)NCCCCCCCCCC[P+](c1ccccc1)(c1ccccc1)c1ccccc1`, the IC50 in series [11] (setting [15]) came out at 1.9 µM.
For the compound `CC(=O)N[C@@H](CS)C(=O)NCCCCCCCCCC[P+](c1ccccc1)(c1ccccc1)c1ccccc1`, the IC50 in [3] (read-out: concentration inhibiting 50% of basal OCR, 24 h treatment) was 20 µM; in series [11] (setting [15]), 9.6 µM; at mitochondrial complex I (read-out: IC50, complex I-induced oxygen consumption, direct injection, permeabilized cells) it was 37 µM. Moreover, the “synergy on proliferation in combination with NAC” value in series [12] is listed as “not with NAC”. In addition, in series [5] (at 37 μM), the cell toxicity entry is on record as “negligible cell toxicity”. Further, the cell death entry in series [5] (at concentrations inhibiting proliferation (printed 10-20 M), 24 h and 48 h) is reported as “no effect”. Besides, the “fold difference in antiproliferative potency between NAC and Mito10-NAC” value in series [11] (MiaPaCa-2, vs NAC) is 1,600 fold. Moreover, the “stability during the course of the cell proliferation experiment” value in series [11] (inferred from bolus vs fresh addition every 48 h) is listed as “relatively stable”. In [6], the “sensitivity of melanoma cells” value is listed as “more resistant”. Also, the “potency relative to NAC in melanoma cells” value in series [6] (vs NAC) is given as “much more potent than NAC”. Besides, the “effect on intracellular ATP” value in [13] is on record as “no effect”. Besides, the “effect on mitochondrial (complex I-induced) respiration” value on mitochondrial complex I (MiaPaCa-2) is listed as “inhibits mitochondrial complex I-induced respiration”.
